# Results as given in PubChem BioAssay (EPA / NIEHS).
# Amino acid sequences for entries named in this document (tags omitted). A change or cut given only in a name is not applied to a line headed by its entry.
# UniProt P08659, whole entry, looked up: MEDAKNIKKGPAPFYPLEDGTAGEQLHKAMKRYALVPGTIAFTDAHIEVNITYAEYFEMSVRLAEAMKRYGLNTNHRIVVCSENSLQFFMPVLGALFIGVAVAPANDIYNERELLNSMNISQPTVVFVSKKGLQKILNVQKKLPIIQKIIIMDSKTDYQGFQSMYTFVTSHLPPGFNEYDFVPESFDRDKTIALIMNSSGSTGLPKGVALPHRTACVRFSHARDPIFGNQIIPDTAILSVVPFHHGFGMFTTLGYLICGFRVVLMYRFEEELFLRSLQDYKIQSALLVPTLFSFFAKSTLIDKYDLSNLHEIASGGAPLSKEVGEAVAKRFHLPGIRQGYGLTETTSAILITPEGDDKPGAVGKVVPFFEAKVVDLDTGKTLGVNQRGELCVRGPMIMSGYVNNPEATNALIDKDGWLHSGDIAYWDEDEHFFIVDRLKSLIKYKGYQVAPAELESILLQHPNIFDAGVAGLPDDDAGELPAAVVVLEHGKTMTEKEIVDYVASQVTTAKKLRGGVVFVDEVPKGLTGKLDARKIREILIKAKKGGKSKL
# UniProt P10275: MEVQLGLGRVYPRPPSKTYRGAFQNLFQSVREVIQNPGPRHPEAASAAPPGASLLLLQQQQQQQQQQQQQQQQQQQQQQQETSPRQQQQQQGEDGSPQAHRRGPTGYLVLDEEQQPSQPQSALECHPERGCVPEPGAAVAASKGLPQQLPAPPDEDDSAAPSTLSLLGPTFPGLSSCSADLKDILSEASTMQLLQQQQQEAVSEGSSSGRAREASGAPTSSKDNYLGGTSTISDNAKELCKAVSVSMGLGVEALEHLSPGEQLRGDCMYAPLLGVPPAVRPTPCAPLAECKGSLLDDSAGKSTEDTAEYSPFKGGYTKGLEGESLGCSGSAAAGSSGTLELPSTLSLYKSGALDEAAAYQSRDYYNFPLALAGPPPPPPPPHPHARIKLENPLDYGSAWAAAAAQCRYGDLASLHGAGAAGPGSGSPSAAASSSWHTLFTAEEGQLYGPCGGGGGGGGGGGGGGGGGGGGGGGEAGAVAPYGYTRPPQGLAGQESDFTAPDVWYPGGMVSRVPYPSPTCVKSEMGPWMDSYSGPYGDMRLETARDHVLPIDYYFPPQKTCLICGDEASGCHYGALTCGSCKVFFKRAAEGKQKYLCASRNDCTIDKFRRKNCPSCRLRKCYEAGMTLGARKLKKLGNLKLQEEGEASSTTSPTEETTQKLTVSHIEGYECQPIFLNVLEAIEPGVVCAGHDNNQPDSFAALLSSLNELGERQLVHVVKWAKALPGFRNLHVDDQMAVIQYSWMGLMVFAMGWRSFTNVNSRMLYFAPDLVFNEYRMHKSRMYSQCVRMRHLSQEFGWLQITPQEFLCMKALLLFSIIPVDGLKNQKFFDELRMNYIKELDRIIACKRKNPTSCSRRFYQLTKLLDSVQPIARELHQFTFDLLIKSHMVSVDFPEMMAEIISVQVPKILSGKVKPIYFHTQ
# UniProt P04386, whole entry, looked up: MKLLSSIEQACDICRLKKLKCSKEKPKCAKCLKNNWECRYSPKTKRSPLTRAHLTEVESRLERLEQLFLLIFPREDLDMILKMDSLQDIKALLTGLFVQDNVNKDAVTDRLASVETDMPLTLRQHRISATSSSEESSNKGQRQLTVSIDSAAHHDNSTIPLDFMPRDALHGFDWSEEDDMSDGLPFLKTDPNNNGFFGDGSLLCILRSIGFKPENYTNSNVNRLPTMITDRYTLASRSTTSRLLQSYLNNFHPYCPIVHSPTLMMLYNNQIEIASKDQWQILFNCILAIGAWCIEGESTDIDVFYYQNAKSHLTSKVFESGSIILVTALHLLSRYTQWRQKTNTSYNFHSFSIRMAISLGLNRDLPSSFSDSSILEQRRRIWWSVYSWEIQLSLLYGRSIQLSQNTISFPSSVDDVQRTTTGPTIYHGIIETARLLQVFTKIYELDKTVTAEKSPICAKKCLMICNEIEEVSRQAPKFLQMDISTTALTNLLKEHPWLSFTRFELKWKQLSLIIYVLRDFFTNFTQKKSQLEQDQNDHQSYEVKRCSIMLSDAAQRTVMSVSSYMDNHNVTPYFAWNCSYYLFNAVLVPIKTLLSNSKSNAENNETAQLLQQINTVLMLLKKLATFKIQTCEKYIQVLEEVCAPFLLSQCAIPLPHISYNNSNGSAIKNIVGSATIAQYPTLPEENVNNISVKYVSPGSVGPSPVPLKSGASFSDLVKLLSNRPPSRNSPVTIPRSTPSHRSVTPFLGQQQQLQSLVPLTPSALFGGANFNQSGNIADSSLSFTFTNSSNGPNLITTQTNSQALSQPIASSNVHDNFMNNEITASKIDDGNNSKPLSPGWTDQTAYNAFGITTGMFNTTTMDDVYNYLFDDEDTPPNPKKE
# UniProt P57717: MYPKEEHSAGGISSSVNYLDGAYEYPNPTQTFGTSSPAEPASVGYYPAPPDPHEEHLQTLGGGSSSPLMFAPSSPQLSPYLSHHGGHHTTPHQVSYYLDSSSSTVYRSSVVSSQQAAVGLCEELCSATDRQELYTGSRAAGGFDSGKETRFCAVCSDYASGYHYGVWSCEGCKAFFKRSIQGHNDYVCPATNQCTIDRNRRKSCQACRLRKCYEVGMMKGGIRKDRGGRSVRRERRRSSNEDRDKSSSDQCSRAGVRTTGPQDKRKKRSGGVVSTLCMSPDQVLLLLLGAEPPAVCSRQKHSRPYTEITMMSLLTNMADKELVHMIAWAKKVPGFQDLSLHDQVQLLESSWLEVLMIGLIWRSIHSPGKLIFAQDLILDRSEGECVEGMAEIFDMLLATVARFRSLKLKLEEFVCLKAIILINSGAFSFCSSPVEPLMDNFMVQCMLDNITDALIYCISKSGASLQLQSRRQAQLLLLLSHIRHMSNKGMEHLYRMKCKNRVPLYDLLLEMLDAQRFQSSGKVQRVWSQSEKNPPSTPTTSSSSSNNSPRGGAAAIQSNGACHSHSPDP
# UniProt P06212, whole entry, looked up: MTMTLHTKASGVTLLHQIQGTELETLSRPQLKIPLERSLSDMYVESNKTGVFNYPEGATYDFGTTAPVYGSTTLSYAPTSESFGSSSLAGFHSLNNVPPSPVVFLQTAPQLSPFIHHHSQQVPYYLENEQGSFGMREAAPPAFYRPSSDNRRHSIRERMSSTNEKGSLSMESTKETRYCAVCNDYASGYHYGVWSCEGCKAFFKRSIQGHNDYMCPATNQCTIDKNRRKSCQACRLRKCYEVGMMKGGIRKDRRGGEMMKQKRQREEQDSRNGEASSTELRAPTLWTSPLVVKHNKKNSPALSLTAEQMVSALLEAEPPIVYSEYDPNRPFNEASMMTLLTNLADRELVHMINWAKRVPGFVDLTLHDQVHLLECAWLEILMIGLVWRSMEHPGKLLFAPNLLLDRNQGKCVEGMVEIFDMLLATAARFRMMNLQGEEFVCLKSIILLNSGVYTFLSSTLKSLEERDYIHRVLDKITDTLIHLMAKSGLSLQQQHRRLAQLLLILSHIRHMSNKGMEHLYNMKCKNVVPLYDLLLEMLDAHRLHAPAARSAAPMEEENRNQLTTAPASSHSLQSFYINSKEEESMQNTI
# UniProt P37231: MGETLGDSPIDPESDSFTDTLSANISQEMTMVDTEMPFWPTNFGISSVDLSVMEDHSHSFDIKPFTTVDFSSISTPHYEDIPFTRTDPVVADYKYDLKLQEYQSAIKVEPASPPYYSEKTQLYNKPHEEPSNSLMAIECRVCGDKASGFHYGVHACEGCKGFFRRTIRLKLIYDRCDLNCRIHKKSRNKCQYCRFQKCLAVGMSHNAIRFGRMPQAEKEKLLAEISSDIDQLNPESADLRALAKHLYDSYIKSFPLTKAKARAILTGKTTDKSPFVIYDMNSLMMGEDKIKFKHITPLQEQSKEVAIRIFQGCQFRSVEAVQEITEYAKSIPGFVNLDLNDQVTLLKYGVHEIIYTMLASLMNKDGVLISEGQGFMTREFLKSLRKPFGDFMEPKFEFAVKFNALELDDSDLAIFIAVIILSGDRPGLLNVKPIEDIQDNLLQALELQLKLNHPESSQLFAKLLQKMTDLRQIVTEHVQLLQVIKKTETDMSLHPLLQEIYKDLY
# “And” between values parts separate entries of the source, which are not always exact repeats. Equal values may be shown once. Only a part is listed here, and it is no random draw. Results filed as inconclusive are left out. Where a structure was tested more than once in an assay, its records may differ in their call. The source made the active and inactive calls. How the source made its calls: active means hit-call score of the fitted dose curve at least 0.9, where 1 is the maximum; inconclusive means response in the unintended direction; inactive means score below 0.9.
# Legend:
# [1] = molecular target: Luciferin 4-monooxygenase (Photinus pyralis) (UniProt P08659); assay: CCTE_Simmons_QuantiLum_inhib_2: CCTE's Firefly Luciferase Inhibition Assay, Simmons Lab (AID 2283767);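 on AC50: potency for inhibitors that lower luciferase luminescence relative to DMSO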
# In short: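 Luminescence loss relative to DMSO vehicle defines inhibition; detection reagent containing 150 uM D-luciferin and 147 uM dATP (final, pH 7.8) is injected immediately before each read. Enzyme is preincubated with an 8-point titration (5 nM–87.5 uM final) for 30 min at 37C.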
# [2] = ACEA_AR_agonist_AUC_viability: ACEA Biosciences xCELLigence Real-Time Cell Analysis on Androgen Receptor Agonism for Viability (AID 2283775);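 on AC50: viability read 80 hours after compound addition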
# In short: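 Real-time impedance tracking of 22Rv1 growth, readings every 5 min for 5 h then hourly; area-under-curve viability endpoint at 80 hours, relative to DMSO. Compounds at eight concentrations, 1:4 steps, top 100 uM, n = 2.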
# [3] = ACEA_AR_antagonist_AUC_viability: ACEA Biosciences xCELLigence Real-Time Cell Analysis on Androgen Receptor Antagonism for Viability (AID 2283776);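 further: 22Rv1 human prostate cancer cells growing on impedance electrode plates; hits lower the growth signal relative to DMSO meaning cytotoxicity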
# In short: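 22Rv1 prostate cells, continuous dosing up to 100 uM final (0.5% DMSO max), duplicate plates. Growth measured by impedance; AUC at 80 h, loss of signal vs DMSO.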
# [4] = ACEA_ER_AUC_viability: ACEA Biosciences xCELLigence Real-Time Cell Analysis on Estrogen Receptor Agonism for Viability (AID 2283782);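 further: continuous compound exposure with impedance area under curve over 80 h; hit means loss of impedance signal meaning reduced cell growth or viability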
# In short: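 T47D cells preconditioned in phenol red-free RPMI with charcoal-stripped FBS, then dosed with 8-point 1:4 series from 100 uM (up to 0.5% DMSO). Impedance monitored up to ~80 h; area-under-curve loss versus DMSO taken as viability.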
# AR (gene 367) [5] = molecular target: AR (gene 367) (UniProt P10275); assay: ACEA_AR_agonist_80hr: ACEA Biosciences xCELLigence Real-Time Cell Analysis on Androgen Receptor Agonism for Proliferation (AID 2283783);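 further: hits increase impedance growth signal above DMSO baseline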
# In short: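 Proliferation of 22Rv1 prostate cancer cells tracked by electrical impedance, endpoint taken at 80 hours after dosing. Eight-point 1:4 dilutions from 100 uM maximum final, duplicate; testosterone and MG132 as positive controls, assay media as negative.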
# AR (gene 367) [6] = molecular target: AR (gene 367) (UniProt P10275); assay: ACEA_AR_antagonist_80hr: ACEA Biosciences xCELLigence Real-Time Cell Analysis on Androgen Receptor Antagonism for Proliferation (AID 2283787);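 further: 22Rv1 human prostate cancer cells with growth followed by electrical impedance; hits lower the impedance growth signal relative to DMSO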
# In short: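 22Rv1 cells in assay medium, growth tracked by electrical impedance; compounds eight-point 1:4 dilutions from 100 uM final, duplicate plates. Endpoint at 80 h; loss of signal versus DMSO.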
# [7] = ATG_M_06_XSP2: Attagene TRANS-FACTORIAL Multi-Species (XSP2) HepG2 Assay for M06 Transcription Factor (Internal Marker) (AID 2283811);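 further: hits are increases in signal above the DMSO baseline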
# In short: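 HepG2 cells transiently transfected with GAL4-UAS multiple reporter units, medium containing 3 nM 6-alpha-fluorotestosterone and 1.5 nM norgestrel; reporter mRNA measured 24 hours post-dosing by RT-PCR and capillary electrophoresis. Internal background marker, gain of signal vs DMSO.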
# [8] = tested on: turtle Estrogen Receptor (ERa), gene 101933533; assay: ATG_trERa_XSP2: Attagene TRANS-FACTORIAL Multi-Species (XSP2) HepG2 Assay for turtle Estrogen Receptor (ERa) (AID 2283812);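 further: human HepG2 liver cells transiently expressing turtle ERa-Gal4 chimeric receptor; actives raise reporter signal above DMSO so AC50 reflects agonist activity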
# In short: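 HepG2 cells transiently transfected with GAL4-UAS reporter units expressing turtle ERa-Gal4 chimera. Reporter mRNA measured after 24 h dosing by RT-PCR, fluorescent labelling and capillary electrophoresis; gain of signal fitted versus DMSO.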
# [9] = molecular target: GAL4 Transcription Factor (Internal Marker), GAL4 (gene 855828) (UniProt P04386); assay: ATG_GAL4_XSP2: Attagene TRANS-FACTORIAL Multi-Species (XSP2) HepG2 Assay for GAL4 Transcription Factor (Internal Marker) (AID 2283814);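 further: GAL4 reporter mRNA background control in MRTU transfected cells not a receptor target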
# In short: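 HepG2 cells transiently transfected with GAL4-UAS reporter units, stimulated with 3 nM 6-alpha-fluorotestosterone plus 1.5 nM norgestrel, dosed 24 h. Reporter mRNA by RT-PCR/capillary electrophoresis; gain-of-signal fit versus DMSO, background control.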
# [10] = molecular target: zebrafish Estrogen Receptor (ER1), esr1 (gene 259252) (UniProt P57717); assay: ATG_zfER1_XSP2: Attagene TRANS-FACTORIAL Multi-Species (XSP2) HepG2 Assay for zebrafish Estrogen Receptor (ER1) (AID 2283816)
# In short: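 HepG2 cells transiently transfected with a GAL4-UAS reporter and a chimeric zebrafish ER1-Gal4 construct, dosed 24 h. Reporter mRNA quantified by RT-PCR, labelling, HpaI digestion and capillary electrophoresis, relative to DMSO.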
# [11] = molecular target: chicken Estrogen Receptor (ERa), ESR1 (gene 396099) (UniProt P06212); assay: ATG_chERa_XSP2: Attagene TRANS-FACTORIAL Multi-Species (XSP2) HepG2 Assay for chicken Estrogen Receptor (ERa) (AID 2283817);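 further: actives raise reporter signal above DMSO so AC50 reflects ER activation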
# In short: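 Transiently transfected HepG2 cells expressing chimeric chicken ERa-GAL4 reporter units, dosed 24 h with 3 nM 6-alpha-fluorotestosterone and 1.5 nM norgestrel present. Reporter mRNA measured by RT-PCR and capillary electrophoresis; gain-of-signal fitted relative to DMSO.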
# [12] = tested on: zebrafish Estrogen Receptor (ER2a), gene 317734; assay: ATG_zfER2a_XSP2: Attagene TRANS-FACTORIAL Multi-Species (XSP2) HepG2 Assay for zebrafish Estrogen Receptor (ER2a) (AID 2283818);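 further: hits raise reporter mRNA so AC50 reflects activation of zebrafish ER2a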
# In short: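 HepG2 cells transiently transfected with GAL4-UAS reporter units and chimeric zebrafish ER2a-Gal4, exposed 24 h; medium contains 3 nM 6-alpha-fluorotestosterone and 1.5 nM norgestrel. Reporter mRNA quantified by RT-PCR, HpaI digestion, capillary electrophoresis; gain versus DMSO.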
# [13] = tested on: frog Estrogen Receptor (ER), gene 398734; assay: ATG_frER1_XSP2: Attagene TRANS-FACTORIAL Multi-Species (XSP2) HepG2 Assay for frog Estrogen Receptor (ER) (AID 2283821);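 further: hits raise reporter mRNA above DMSO baseline so potency means agonist or activator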
# In short: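 HepG2 cells transiently transfected with GAL4-UAS reporter units expressing a chimeric frog ER-Gal4 protein; 24 h exposure. Reporter mRNA quantified by RT-PCR, fluorescent labelling and capillary electrophoresis; gain of signal fitted against DMSO baseline.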
# [14] = tested on: zebrafish Estrogen Receptor (ER2b), gene 317733; assay: ATG_zfER2b_XSP2: Attagene TRANS-FACTORIAL Multi-Species (XSP2) HepG2 Assay for zebrafish Estrogen Receptor (ER2b) (AID 2283823);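 further: fitted upward as reporter gain over DMSO so potency reflects activation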
# In short: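 Read-out: fluorescent reporter mRNA, measured by RT-PCR then capillary electrophoresis after HpaI digestion. HepG2 cells carried transiently transfected multi-reporter TRANS constructs (NR-Gal4 chimeras); 24 h chemical exposure; activity scored upward versus DMSO control.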
# [15] = tested on: zebrafish Androgen Receptor (AR), gene 100005148; assay: ATG_zfAR_XSP2: Attagene TRANS-FACTORIAL Multi-Species (XSP2) HepG2 Assay for zebrafish Androgen Receptor (AR) (AID 2283825);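 further: hits raise reporter mRNA above DMSO so AC50 reflects agonist-type gain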
# In short: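 Zebrafish AR–GAL4 chimera transiently expressed with GAL4-UAS reporter in HepG2 cells, co-stimulated with 3 nM 6-alpha-fluorotestosterone and 1.5 nM norgestrel; 24 h dosing, reporter mRNA read by RT-PCR/capillary electrophoresis versus DMSO.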
# [16] = ATG_M_32_XSP2: Attagene TRANS-FACTORIAL Multi-Species (XSP2) HepG2 Assay for M19 Transcription Factor (Internal Marker) (AID 2283826)
# In short: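 HepG2 cells transiently transfected with GAL4-UAS reporter transcription units, dosed with compound for 24 h in presence of 3 nM 6-alpha-fluorotestosterone and 1.5 nM norgestrel; reporter mRNA quantified by RT-PCR, FAM labelling, HpaI digestion and capillary electrophoresis.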
# [17] = tested on: frog Estrogen Receptor (ER2), gene 100174814; assay: ATG_frER2_XSP2: Attagene TRANS-FACTORIAL Multi-Species (XSP2) HepG2 Assay for frog Estrogen Receptor (ER2) (AID 2283828)
# In short: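 HepG2 cells transiently transfected with multiplexed GAL4-UAS reporter units expressing chimeric frog ER2–Gal4 protein; reporter mRNA measured 24 h after chemical dosing by RT-PCR, fluorescent labeling and capillary electrophoresis. Gain-of-signal fitted relative to DMSO baseline.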
# [18] = molecular target: Peroxisome proliferator-activated receptor gamma (Homo sapiens) (UniProt P37231); assay: ATG_hPPARg_XSP2: Attagene TRANS-FACTORIAL Multi-Species (XSP2) HepG2 Assay for human Peroxisome Proliferator-activated Receptor gamma (PPARg) (AID 2283829);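 further: actives raise reporter mRNA above DMSO so AC50 reflects PPARg activation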
# In short: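 HepG2 cells transiently transfected with multiplexed GAL4-UAS reporter units for chimeric NR-Gal4 receptors, dosed 24 h. Reporter mRNA quantified by RT-PCR, 6-FAM labeling, HpaI digestion and capillary electrophoresis; gain-of-signal fitted against DMSO baseline.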
# [19] = Tanguay_ZF_120hpf_ActivityScore_legacy: (Legacy) Oregon State University Tanguay Lab 120 Hour Post-fertilization zebrafish Assay Score for Activity (AID 2283742);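 on AC50: dechorionated Tropical 5D wild-type zebrafish embryos held singly per well; static exposure from 6 hpf until 120 hpf at 28 °C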
# In short: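 Dechorionated Tropical 5D embryos, one per well from 6 hpf, statically exposed to 120 hpf at 28 °C in 0.64% DMSO. Mortality and malformations scored binary by brightfield microscopy; activity score combines 18 endpoints, fitted positively versus DMSO.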
# [20] = STM_H9_NormalizedViability: Cytotoxicity Assessment at 120 hours in the Stemina devTOX quickPredict H9 human embryonic stem cell (hESC)-based Assay (AID 2283784)
# In short: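 Pluripotent H9 cells dosed, fresh medium plus compound q24h → cell layer read by CellTiter-Fluor → RFU blank-corrected, normalized to DMSO 0.1% mean. Loss-of-signal fit, DMSO as baseline.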
structure (smiles),measurement,setting,value
ClP(Cl)c1ccccc1,outcome,[1],inactive
same,outcome,[2],inactive
same,outcome,[3],inactive
same,outcome,[4],inactive
CCCCC(CC)CO[P+](=O)OCC(CC)CCCC (configuration not stated),outcome,[4],inactive
O=[P+](Oc1ccccc1)Oc1ccccc1,outcome,[1],inactive
same,outcome,[3],inactive
same,outcome,AR (gene 367) [5],inactive
same,outcome,AR (gene 367) [6],inactive
same,outcome,[7],inactive
same,AC50,[8],active: 27.5 µM
same,outcome,[8],inactive
same,outcome,[9],inactive
same,outcome,[10],inactive
same,AC50,[11],active: 20.1 µM
same,outcome,[11],inactive
same,AC50,[12],active: 49.2 µM and active: 15.2 µM
same,outcome,[13],inactive
same,AC50,[14],active: 25.5 µM and active: 7.4 µM
same,outcome,[15],inactive
same,outcome,[16],inactive
same,AC50,[17],active: 15.8 µM and active: 5.58 µM
same,outcome,[18],inactive
O=C(Cl)OCCOC(=O)Cl,outcome,[4],inactive
O=[N+]([O-])c1ccc([N+](=O)[O-])cc1,AC50,[4],active: 37.4 µM
CC(C)OP(=S)(OC(C)C)SCCNS(=O)(=O)c1ccccc1,outcome,[19],inactive
same,AC50,[1],active: 10.7 µM
same,outcome,[1],inactive
same,AC50,[2],active: 71.8 µM
same,AC50,[3],active: 75.2 µM
same,AC50,[4],active: 90.1 µM
CCCCO[P+](=O)OCCCC,outcome,[4],inactive
CN(C(=O)Cc1cccc2occc12)[C@H]1CC[C@@]2(CCCO2)C[C@@H]1N1CCCC1,outcome,[19],inactive
same,outcome,[2],inactive
same,outcome,[3],inactive
same,AC50,[4],active: 19.7 µM
CC(C)CCCCCCCOP(OCCCCCCCC(C)C)Oc1ccccc1,outcome,[1],inactive
same,outcome,[2],inactive
same,outcome,[3],inactive
O=C(Cl)Oc1ccccc1,outcome,[4],inactive
CCCCOP(OCCCC)OCCCC,outcome,[4],inactive
Cc1cc([N+](=O)[O-])cc([N+](=O)[O-])c1O,AC50,[19],active: 2.1 µM
same,AC50,[2],active: 50 µM
same,AC50,[3],active: 36.3 µM
same,outcome,AR (gene 367) [5],inactive
same,AC50,AR (gene 367) [6],active: 55.3 µM
O=C1C2CC=CCC2C(=O)N1SC(Cl)(Cl)C(Cl)Cl (configuration not stated),AC50,[19],active: 33 µM
same,AC50,[2],active: 6.42 µM
same,AC50,[4],active: 73 µM
same,outcome,AR (gene 367) [5],inactive
same,AC50,[20],active: 5.61 µM
same,AC50,AR (gene 367) [6],active: 4.37 µM
